Source: patent publication US11229675B2, “Therapeutic peptides for excitatory neurotoxicity-related injuries” (Biocells (Beijing) Biotech Co., Ltd., priority 2016, dated 2022)

The chains behind the UniProt entries cited, without tags or fusion partners. Residues count along the entry.
UniProt P78352, 61-249: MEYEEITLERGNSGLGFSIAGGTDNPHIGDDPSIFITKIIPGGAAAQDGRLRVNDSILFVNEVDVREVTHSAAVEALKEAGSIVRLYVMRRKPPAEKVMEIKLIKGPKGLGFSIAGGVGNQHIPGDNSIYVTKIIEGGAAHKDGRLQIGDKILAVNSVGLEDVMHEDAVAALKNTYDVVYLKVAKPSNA

Biological target: PDZ1/2 domain (Homo sapiens, UniProt P78352)
Assay: biochemical

SMILES: CC[C@H](C)[C@H](NC(=O)[C@H](CCC(=O)O)NC(=O)[C@@H](NC(=O)[C@H](CC(=O)O)NC(=O)[C@H](CC(C)C)NC(=O)[C@H](CC(C)C)NC(=O)[C@H](CCCCN)NC(=O)[C@H](CCC(=O)O)NC(=O)[C@H](Cc1ccc(O)cc1)NC(=O)[C@H](CCCNC(=N)N)NC(=O)[C@H](CCCNC(=N)N)NC(=O)[C@H](CCCNC(=N)N)NC(=O)[C@H](CCC(N)=O)NC(=O)[C@H](CCCNC(=N)N)NC(=O)[C@H](CCCNC(=N)N)NC(=O)[C@H](CCCCN)NC(=O)[C@H](CCCCN)NC(=O)[C@H](CCCNC(=N)N)NC(=O)CNC(=O)[C@@H](N)Cc1ccc(O)cc1)[C@@H](C)O)C(=O)O [P5]
- Kd: 29.9 nM
